Data on 17 molecules can be found in ChEMBL document CHEMBL1157322, “Pregnane glycosides from Leptadenia pyrotechnica” (2006).

One test has as its system HEK293. The test is described as follows: Antiproliferative activity against HEK293 cells after 3 days by MTT conversion assay. For orientation: Tetrazolium dyes change colour on reduction, which living cells bring about.
Another test deals with J774.A1. The test is described as follows: Antiproliferative activity against mouse J774.A1 cells after 3 days by MTT conversion assay.
The subject of a further test is WEHI-164. In words: Antiproliferative activity against mouse WEHI164 cells after 3 days by MTT conversion assay.

Regarding `CO[C@H]1[C@@H](O)[C@@H](C)O[C@@H](O[C@H]2[C@@H](OC)C[C@H](O[C@H]3[C@@H](OC)C[C@H](O[C@@H]4[C@@H](C)O[C@@H](O[C@H]5CC[C@@]6(C)C(=CC[C@]7(O)[C@@H]6C[C@@H](OC(=O)c6ccccc6)[C@@]6(C)[C@]7(O)CC[C@]6(O)[C@H](C)OC(=O)c6ccccc6)C5)C[C@H]4OC)O[C@@H]3C)O[C@@H]2C)[C@@H]1O`, the IC50 (usually the concentration that inhibits the measured activity by half) with HEK293 is 1.78 µM; in the test on J774.A1, 1.21 µM.
`CO[C@H]1C[C@H](O[C@@H]2[C@@H](C)O[C@@H](O[C@H]3CC[C@@]4(C)C(=CC[C@]5(O)[C@@H]4C[C@@H](OC(=O)/C=C/c4ccc(O)cc4)[C@@]4(C)[C@]5(O)CC[C@]4(O)C(C)=O)C3)C[C@H]2OC)O[C@H](C)[C@H]1O[C@H]1C[C@H](OC)[C@H](O[C@@H]2O[C@H](CO)[C@@H](O)[C@H](O)[C@H]2O)[C@@H](C)O1`: the results for the IC50 in the test on HEK293, with WEHI-164 and with J774.A1 were 0.1 µM, 0.08 µM and 0.12 µM, respectively.
Turning to `CO[C@H]1[C@@H](O)[C@@H](C)O[C@@H](O[C@@H]2[C@@H](C)O[C@@H](O[C@H]3[C@@H](OC)C[C@H](O[C@H]4[C@@H](OC)C[C@H](O[C@H]5CC[C@@]6(C)C(=CC[C@]7(O)[C@@H]6C[C@@H](OC(=O)/C=C/c6ccccc6)[C@@]6(C)[C@]7(O)CC[C@]6(O)[C@H](C)OC(=O)c6ccccc6)C5)O[C@@H]4C)O[C@@H]3C)C[C@H]2OC)[C@@H]1O`, the midpoint of inhibition with J774.A1, the IC50, lay at 1.22 µM.
Consider `CO[C@H]1[C@@H](O)[C@@H](C)O[C@@H](O[C@@H]2[C@@H](C)O[C@@H](O[C@H]3[C@@H](OC)C[C@H](O[C@@H]4CO[C@@H](O[C@H]5CC[C@@]6(C)C(=CC[C@]7(O)[C@@H]6C[C@@H](OC(=O)c6ccccc6)[C@@]6(C)[C@]7(O)CC[C@]6(O)[C@H](C)OC(=O)c6ccccc6)C5)C[C@@H]4OC)O[C@@H]3C)C[C@H]2OC)[C@@H]1O`, for which the IC50 came to 0.62 µM in the test with HEK293 and 1.86 µM in the test on J774.A1.
For the molecule `CO[C@@H]1[C@@H](O)[C@H](O[C@@H]2[C@@H](C)O[C@@H](O[C@H]3[C@@H](OC)C[C@H](O[C@H]4[C@@H](OC)C[C@H](O[C@H]5CC[C@@]6(C)C(=CC[C@]7(O)[C@@H]6[C@H](O)[C@@H](OC(=O)/C=C/c6ccccc6)[C@@]6(C)[C@]7(O)CC[C@]6(O)[C@H](C)O)C5)O[C@@H]4C)O[C@@H]3C)C[C@H]2OC)O[C@H](C)[C@H]1O[C@@H]1O[C@H](CO)[C@@H](O)[C@H](O)[C@H]1O`, the IC50 in the test with J774.A1 stood at 0.78 µM.
Regarding `CO[C@H]1[C@@H](O)[C@@H](C)O[C@@H](O[C@@H]2[C@@H](C)O[C@@H](O[C@H]3[C@@H](OC)C[C@H](O[C@H]4[C@@H](OC)C[C@H](O[C@H]5CC[C@@]6(C)C(=CC[C@]7(O)[C@@H]6C[C@@H](OC(C)=O)[C@@]6(C)[C@]7(O)CC[C@]6(O)C(C)=O)C5)O[C@@H]4C)O[C@@H]3C)C[C@H]2OC)[C@@H]1O`, the IC50 with WEHI-164 is 0.72 µM; in the test with J774.A1, 0.79 µM.
With `CO[C@@H]1[C@@H](O)[C@H](O[C@H]2[C@@H](OC)C[C@H](O[C@H]3[C@@H](OC)C[C@H](O[C@H]4[C@@H](OC)C[C@H](O[C@H]5CC[C@@]6(C)C(=CC[C@]7(O)[C@@H]6C[C@@H](OC(=O)/C=C/c6ccccc6)[C@@]6(C)[C@]7(O)CC[C@]6(O)[C@H](C)OC(=O)c6ccccn6)C5)O[C@@H]4C)O[C@@H]3C)O[C@@H]2C)O[C@H](C)[C@H]1O[C@@H]1O[C@H](CO)[C@@H](O)[C@H](O)[C@H]1O`, the figures for the IC50 with HEK293 and with WEHI-164 were 1.37 µM and 0.64 µM, respectively.
Regarding `CO[C@H]1[C@@H](O)[C@@H](C)O[C@@H](O[C@@H]2[C@@H](C)O[C@@H](O[C@H]3[C@@H](OC)C[C@H](O[C@H]4[C@@H](OC)C[C@H](O[C@H]5CC[C@@]6(C)C(=CC[C@]7(O)[C@@H]6C[C@@H](OC(=O)/C=C/c6ccccc6)[C@@]6(C)[C@]7(O)CC[C@]6(O)C(C)=O)C5)O[C@@H]4C)O[C@@H]3C)C[C@H]2OC)[C@@H]1O`, the figures for the IC50 in the test with HEK293, in the test with WEHI-164 and with J774.A1 were 0.07 µM, 0.14 µM and 0.126 µM, respectively.
For `CO[C@H]1C[C@H](O[C@H]2CC[C@@]3(C)C(=CC[C@]4(O)[C@@H]3C[C@@H](OC(=O)/C=C/c3ccccc3)[C@@]3(C)[C@]4(O)CC[C@]3(O)[C@H](C)O)C2)O[C@H](C)[C@H]1O[C@H]1C[C@H](OC)[C@H](O[C@H]2C[C@H](OC)[C@H](O[C@@H]3O[C@H](CO[C@@H]4O[C@H](CO)[C@@H](O)[C@H](O)[C@H]4O)[C@@H](O)[C@H](O)[C@H]3O)[C@@H](C)O2)[C@@H](C)O1`, the IC50 was 0.94 µM in the test on WEHI-164 and 0.91 µM with J774.A1.
Turning to `CO[C@H]1[C@@H](O)[C@@H](C)O[C@@H](O[C@@H]2[C@@H](C)O[C@@H](O[C@H]3[C@@H](OC)C[C@H](O[C@H]4[C@@H](OC)C[C@H](O[C@H]5CC[C@@]6(C)C(=CC[C@]7(O)[C@@H]6C[C@@H](OC(=O)/C=C/c6ccccc6)[C@@]6(C)[C@]7(O)CC[C@]6(O)[C@H](C)O)C5)O[C@@H]4C)O[C@@H]3C)C[C@H]2OC)[C@@H]1O`, the IC50 in the test on HEK293 was 0.46 µM; in the test on J774.A1, 2.11 µM.
On to `CO[C@H]1C[C@H](O[C@H]2CC[C@@]3(C)C(=CC[C@]4(O)[C@@H]3C[C@@H](OC(=O)/C=C/c3ccccc3)[C@@]3(C)[C@]4(O)CC[C@]3(O)C(C)=O)C2)O[C@H](C)[C@H]1O[C@H]1C[C@H](OC)[C@H](O[C@H]2C[C@@H](OC)[C@H](O[C@@H]3O[C@H](CO[C@@H]4O[C@H](CO)[C@@H](O)[C@H](O)[C@H]4O)[C@@H](O)[C@H](O)[C@H]3O)[C@@H](C)O2)[C@@H](C)O1`, for which the IC50 in the test on HEK293 was 0.35 µM; in the test on WEHI-164, 0.38 µM; with J774.A1 it was 0.064 µM.
For `CO[C@@H]1[C@@H](O)[C@H](O[C@@H]2[C@@H](C)O[C@@H](O[C@H]3[C@@H](OC)C[C@H](O[C@H]4[C@@H](OC)C[C@H](O[C@H]5CC[C@@]6(C)C(=CC[C@]7(O)[C@@H]6C[C@@H](OC(=O)/C=C/c6ccccc6)[C@@]6(C)[C@]7(O)CC[C@]6(O)C(C)=O)C5)O[C@@H]4C)O[C@@H]3C)C[C@H]2OC)O[C@H](C)[C@@H]1O[C@@H]1O[C@H](CO)[C@@H](O)[C@H](O)[C@H]1O` the same measures were 0.23 µM, 0.39 µM and 0.056 µM.
The like results for `CO[C@H]1C[C@H](O[C@@H]2[C@@H](C)O[C@@H](O[C@H]3CC[C@@]4(C)C(=CC[C@]5(O)[C@@H]4C[C@@H](OC(=O)/C=C/c4ccccc4)[C@@]4(C)[C@]5(O)CC[C@]4(O)C(C)=O)C3)C[C@H]2OC)O[C@H](C)[C@H]1O[C@H]1C[C@@H](OC)[C@H](O[C@H]2C[C@@H](OC)[C@H](O[C@@H]3O[C@H](CO[C@@H]4O[C@H](CO)[C@@H](O)[C@H](O)[C@H]4O)[C@@H](O)[C@H](O)[C@H]3O)[C@@H](C)O2)[C@@H](C)O1` were, in that order, 0.43 µM, 0.66 µM and 0.74 µM.
As for `CO[C@@H]1[C@@H](O)[C@H](O[C@H]2[C@@H](OC)C[C@H](O[C@H]3[C@@H](OC)C[C@H](O[C@H]4CC[C@@]5(C)C(=CC[C@]6(O)[C@@H]5C[C@@H](OC(=O)/C=C/c5ccccc5)[C@@]5(C)[C@]6(O)CC[C@]5(O)C(C)=O)C4)O[C@@H]3C)O[C@@H]2C)O[C@H](C)[C@@H]1O[C@H]1C[C@@H](OC)[C@H](O[C@@H]2O[C@H](CO[C@@H]3O[C@H](CO)[C@@H](O)[C@H](O)[C@H]3O)[C@@H](O)[C@H](O)[C@H]2O)[C@@H](C)O1`, the IC50 with HEK293 came to 0.59 µM; in the test with WEHI-164 it was 0.95 µM; with J774.A1 it was 0.62 µM.
In the case of `CO[C@@H]1[C@@H](O)[C@H](O[C@@H]2[C@@H](C)O[C@@H](O[C@H]3[C@@H](OC)C[C@H](O[C@H]4[C@H](O)C[C@H](O[C@H]5CC[C@@]6(C)C(=CC[C@]7(O)[C@@H]6C[C@@H](OC(C)=O)[C@@]6(C)[C@]7(O)CC[C@]6(O)C(C)=O)C5)O[C@@H]4C)O[C@@H]3C)C[C@H]2OC)O[C@H](C)[C@H]1O`, the IC50 worked out at 0.64 µM in the test with WEHI-164 and 0.78 µM with J774.A1.
Turning to `CO[C@@H]1[C@@H](O)[C@H](O[C@H]2[C@@H](OC)C[C@H](O[C@H]3[C@@H](OC)C[C@H](O[C@H]4CC[C@@]5(C)C(=CC[C@]6(O)[C@@H]5C[C@@H](OC(=O)/C=C/c5ccccc5)[C@@]5(C)[C@]6(O)CC[C@]5(O)[C@H](C)O)C4)O[C@@H]3C)O[C@@H]2C)O[C@H](C)[C@@H]1O[C@H]1C[C@@H](OC)[C@H](O[C@@H]2O[C@H](CO[C@@H]3O[C@H](CO)[C@@H](O)[C@H](O)[C@H]3O)[C@@H](O)[C@H](O)[C@H]2O)[C@@H](C)O1`, 0.88 µM corresponded to half-maximal inhibition with J774.A1 (IC50).
Turning to `CO[C@@H]1[C@@H](O)[C@H](O[C@H]2[C@@H](OC)C[C@H](O[C@H]3[C@@H](OC)C[C@H](O[C@H]4[C@@H](OC)C[C@H](O[C@H]5CC[C@@]6(C)C(=CC[C@]7(O)[C@@H]6C[C@@H](OC(=O)/C=C/c6ccccc6)[C@@]6(C)[C@]7(O)CC[C@]6(O)C(C)=O)C5)O[C@@H]4C)O[C@@H]3C)O[C@@H]2C)O[C@H](C)[C@H]1O[C@@H]1O[C@H](CO)[C@@H](O)[C@H](O)[C@H]1O`, the IC50 with HEK293 was found to be 0.38 µM; with WEHI-164, 0.85 µM; in the test with J774.A1 it was 0.05 µM.
